GIV Gai3 FP: GIV-Galpha-i interaction inhibition. P08753. Galpha-i3/FITC-GIV peptide fluorescence polarization, 90 min; active compounds read low; scaled: aluminum fluoride 0%, vehicle 100%. percent of control (FP), % (test concentration not listed). 210,000 compounds, 0.42% hits. AID 1224905;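 active = replicate mean at 85% of control or lower, very high polarization wells dropped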;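 also: lower values mean more displacement of the GIV peptide from Galpha-i3; wells of about 15 µL received 100 nL stock; the first replicate is given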
HCMV NEC inh: inhibitors of HCMV UL50-UL53 nuclear egress complex interaction; HTRF UL50-UL53 interaction, normalized percent inhibition; inhibition, % (test concentration not listed); actives 0.15% (n = 190,000); in the data active = inhibition above about 27%, passing the limit was not always enough
GIV Gai FP conf: GIV-Galpha-i3 inhibition, FP confirmation | fluorescence polarization, mP at 100 µM | actives 38% (n = 580) | AID 1259350 | shares compounds with GIV Gai3 FP | FITC-GIV peptide binding to Galphai3, fluorescence polarization; stronger effect = lower value;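 active = inhibition score of 15 or more, meaning 100 minus mean polarization as percent of control over three replicates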
GIV Gai AS conf: confirmation of inhibitors of GIV binding to human Galpha-i3. shares compounds with GIV Gai3 FP. AID 1259351. AlphaScreen counts at 100 µM. actives 39% (n = 580). AlphaScreen Galphai3-GIV binding, purified proteins, 90 min; stronger effect = lower value;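 active = inhibition score at or above a set limit, where the score is 100 minus the three-replicate mean percent of control signal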
Starred values were filed as active, the others as inactive. Shown are actives, neighbours in structure and some others; about 0.46% of the full set was active somewhere.

Results for CCc1ccc(N2C(=O)/C(=C/c3ccc(OCC(=O)O)c(Br)c3)C(=O)NC2=S)cc1 ?
GIV Gai3 FP: 57.4*; HCMV NEC inh: -30.1; GIV Gai FP conf: 34.4*; GIV Gai AS conf: 3342*

What do the screens show for `Cc1ccc(-n2c(/C=C/c3ccccc3)nc3ccccc3c2=O)cc1Cl`?
GIV Gai3 FP: 108.7

Results for Cc1ccc(C2c3cccn3-c3ccccc3CN2C(=O)C(C)C)cc1 (stereo not given) ?
GIV Gai3 FP: 105.1

How did CCN(CC)C(=O)c1ccc(NC(=O)Cn2nc(-c3ccccc3)c3ccccc3c2=O)cc1 do in these assays?
GIV Gai3 FP: 107.1; HCMV NEC inh: 4.1

How did CCn1nc(-c2ccccc2)nc2c(=O)n(C)c(=O)nc1-2 do in these assays?
GIV Gai3 FP: 18.6*; HCMV NEC inh: 88.3*; GIV Gai FP conf: 16.3*; GIV Gai AS conf: 24179

Results for CCn1nc(-c2cccnc2)nc2c(=O)n(C)c(=O)nc1-2 ?
GIV Gai3 FP: 46.0*; HCMV NEC inh: 70.8; GIV Gai FP conf: 39.5*; GIV Gai AS conf: 42657

How did COc1cc(/C=C2\C(=O)NC(=O)N(c3ccccc3)C2=O)c([N+](=O)[O-])cc1OC do in these assays?
GIV Gai3 FP: 110.7

How did COc1cc(C=C2C(=O)NC(=O)NC2=O)ccc1OS(=O)(=O)c1ccccc1[N+](=O)[O-] do in these assays?
GIV Gai3 FP: 70.8*; HCMV NEC inh: 51.2*; GIV Gai FP conf: 58.1; GIV Gai AS conf: 54298

Results for c1cc2ccsc2c(N2CCNCC2)n1 ?
HCMV NEC inh: -23.5

How did O=C1NC(=O)C(=Cc2ccc(N3CCOCC3)cc2)C(=O)N1 do in these assays?
GIV Gai3 FP: 102.0; HCMV NEC inh: -1.6

Results for O=C1NC(=O)C(=Cc2ccccc2)C(=O)N1 ?
GIV Gai3 FP: 28.9*; HCMV NEC inh: 99.1*; GIV Gai FP conf: 31.6*; GIV Gai AS conf: 27826*

How did O=C1NC(=O)N(c2ccccc2)C(=O)/C1=C/c1ccccc1 do in these assays?
GIV Gai3 FP: 96.9; HCMV NEC inh: 6.1

How did CC(C)c1ccc(C=C2C(=O)NC(=O)NC2=O)cc1 do in these assays?
GIV Gai3 FP: 32.3*; GIV Gai FP conf: 28*; GIV Gai AS conf: 33706

What do the screens show for `COc1cc(CNCCc2ccccc2)cc(OC)c1`?
GIV Gai3 FP: 105.2; HCMV NEC inh: -9.3

What do the screens show for `COc1cc(C2C(C#N)=C(N)Oc3c2c(=O)oc2ccccc32)ccc1OC(=O)c1ccco1` (stereo not given)?
GIV Gai3 FP: 106.3

Results for COc1cc2c(no[n+]2[O-])n2nnnc12 ?
GIV Gai3 FP: 79.8*; HCMV NEC inh: -95.7; GIV Gai FP conf: 68.1; GIV Gai AS conf: 11443*

How did CCC1CN(C)CCC1(OC(=O)c1ccccc1)c1ccccc1 (stereo not given) do in these assays?
GIV Gai3 FP: 112.0

What do the screens show for `O=C1CC(c2ccccc2)c2cnn(-c3nc4ccccc4s3)c2N1` (stereo not given)?
GIV Gai3 FP: 97.4

How did Cc1n[nH]c(C)c1CCN do in these assays?
GIV Gai3 FP: 109.2; HCMV NEC inh: -18.6

How did CN=C(NS(=O)(=O)c1ccc(Cl)cc1)N1C[C@H](c2ccccc2)C(c2ccc(Cl)cc2)=N1 do in these assays?
HCMV NEC inh: -22.7

How did C=CCN1C(=O)NC(=O)/C(=C/C=C/c2ccccc2)C1=O do in these assays?
GIV Gai3 FP: 154.8; HCMV NEC inh: 4.1

How did CN1C(=O)C(=C/C=C/c2ccccc2)C(=O)N(C)C1=O do in these assays?
GIV Gai3 FP: 80.9*; HCMV NEC inh: 8.8; GIV Gai FP conf: 73.8; GIV Gai AS conf: 6725*

How did CC[N+](CC)=c1ccc2ccc(O)cc2o1 do in these assays?
GIV Gai3 FP: 63.0*; HCMV NEC inh: -31.0; GIV Gai FP conf: 43*; GIV Gai AS conf: 33013*

What do the screens show for `Cc1ccc(-n2c(/C=C/c3ccccc3)nc3ccccc3c2=O)cc1C`?
GIV Gai3 FP: 102.4

A draw from above in order of number of heavy atoms, smallest number first.
How did Cc1n[nH]c(C)c1CCN do in these assays?
GIV Gai3 FP: 109.2; HCMV NEC inh: -18.6

Results for c1cc2ccsc2c(N2CCNCC2)n1 ?
HCMV NEC inh: -23.5

What do the screens show for `O=C1CC(c2ccccc2)c2cnn(-c3nc4ccccc4s3)c2N1` (stereo not given)?
GIV Gai3 FP: 97.4

What do the screens show for `COc1cc(C2C(C#N)=C(N)Oc3c2c(=O)oc2ccccc32)ccc1OC(=O)c1ccco1` (stereo not given)?
GIV Gai3 FP: 106.3

Continuation.
Results for CCCCC/C=C\C/C=C\C/C=C\C/C=C\CCCC(=O)Nc1ccc(O)cc1 ?
HCMV NEC inh: -13.0

Results for CCS(=O)(=O)Nc1cccc(C(=C2CCCCC2)c2cnc[nH]2)c1 ?
GIV Gai3 FP: 86.9; HCMV NEC inh: -25.2; GIV Gai FP conf: 77.4; GIV Gai AS conf: 6784*

Results for COc1ccc(CC(=O)Nc2ccc3c(C(F)(F)F)cc(=O)oc3c2)cc1OC ?
GIV Gai3 FP: 98.2

Results for O=C(/C=C/c1ccco1)C1C(=O)c2ccccc2C1=O ?
GIV Gai3 FP: 112.3; HCMV NEC inh: -23.6

Results for c1ccc2c(NC3=NCCS3)cccc2c1 ?
GIV Gai3 FP: 83.4*; HCMV NEC inh: 17.8; GIV Gai FP conf: 60.6; GIV Gai AS conf: 35407*

Results for Cc1ccccc1NC1=NCCS1 ?
HCMV NEC inh: -28.7

How did CN1CCN(Cc2cc(=O)n3ccsc3n2)CC1 do in these assays?
GIV Gai3 FP: 107.4; HCMV NEC inh: -7.8

What do the screens show for `Cc1nc(S(=O)(=O)N2CCCCC2c2cccnc2)cn1C` (stereo not given)?
GIV Gai3 FP: 84.8*; HCMV NEC inh: -4.0; GIV Gai FP conf: 58.3; GIV Gai AS conf: 42642

What do the screens show for `Nc1ccc(S(=O)(=O)N2CCCCC2c2cccnc2)cc1` (stereo not given)?
GIV Gai3 FP: 103.1; HCMV NEC inh: -16.5

What do the screens show for `Cc1ccc(CN(Cc2ccco2)C(=S)NCC(=O)N2CCC3(CC2)OCCO3)cc1`?
GIV Gai3 FP: 103.2; HCMV NEC inh: -12.9

How did Cc1cc(C)c2oc(-c3ccc(N/C=c4\c(C)c(C#N)c5nc6ccccc6n5c4=O)cc3)nc2c1 do in these assays?
GIV Gai3 FP: 72.6*; HCMV NEC inh: 2.6; GIV Gai FP conf: 80.3; GIV Gai AS conf: 44971

Results for COc1c(Cl)cc(Cl)cc1-c1c(C#N)c(N)n2c(nc3ccccc32)c1C#N ?
GIV Gai3 FP: 101.8

How did c1cncc(C2NCCc3[nH]cnc32)c1 (stereo not given) do in these assays?
GIV Gai3 FP: 103.2; HCMV NEC inh: -14.8

Screens as filed in PubChem BioAssay.
